Assay [1] deals with T1, human M1 muscarinic receptor (Homo sapiens, UniProt P11229).
T1 construct: purchased PerkinElmer Life and Analytical Sciences, Boston, MA
As to the kind of experiment: GTP-γ-[35S] binding, antibody capture SPA (agonist and antagonist mode). It is filed as biochemical. The procedure: The antibody capture scintillation proximity technique previously described by DeLapp et al was used in a 96-well plate to determine GTP-γ-[35S] binding. One hundred μl (20–40 fmol/well) of membrane preparation from CHO cells that stably express the human M1-M5 muscarinic receptors (PerkinElmer Life and Analytical Sciences, Boston, MA) were incubated with varying concentration of test compound (final concentrations from 50pM to 1μM) for 30 min. One μM final concentration of GDP was added to M2 and M4 receptor membranes before incubation. […] (500 pM final concentration; Perkin Elmer Life and Analytical Sciences) was added to each well followed by 30 min of incubation. […] An anti-Gαq/11 antibody was used for the M1-, M3-, and M5 membranes, whereas an anti-Gαi-3 antibody was used for the M2- and M4 membranes (Eli Lilly and Company, Indianapolis, IN). […] By use of a Wallac MicroBeta TriLux scintillation counter (PerkinElmer), the plates were centrifuged for 10 min at 700 × g and counted for 1 min per well. The incubations took place at room temperature in GTP-binding assay buffer (20 mM Hepes, 100 mm NaCl, 5 mM MgC12, pH 7.4). The data were analyzed by use of nonlinear regression for a sigmoidal concentration response curve (GraphPad Prism v. 4.0). […] The mean relative EC50, IC50, and %Emax, and pKi values were calculated as a mean of at least three independent experiments±SEM. […]
Background: Binding of GTPγS marks nucleotide exchange on a G protein.

Protein sequences, listed by entry. Tags and fused reporters are not part of them. Lines headed by an entry give the natural chain unless they say otherwise; changes in a name come on top.
UniProt P11229: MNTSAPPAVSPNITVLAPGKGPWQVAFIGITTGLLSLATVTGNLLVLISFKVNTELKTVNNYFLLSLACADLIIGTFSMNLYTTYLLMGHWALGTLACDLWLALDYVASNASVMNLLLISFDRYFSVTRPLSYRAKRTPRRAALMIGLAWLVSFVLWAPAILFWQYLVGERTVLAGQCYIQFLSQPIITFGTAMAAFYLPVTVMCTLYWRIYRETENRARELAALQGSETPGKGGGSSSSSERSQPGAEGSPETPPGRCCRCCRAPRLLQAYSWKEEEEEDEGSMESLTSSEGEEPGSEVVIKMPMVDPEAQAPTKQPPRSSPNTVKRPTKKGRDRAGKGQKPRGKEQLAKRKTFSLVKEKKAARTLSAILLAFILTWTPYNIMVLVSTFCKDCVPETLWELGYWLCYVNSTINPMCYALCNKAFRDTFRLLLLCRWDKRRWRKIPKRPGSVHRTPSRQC
UniProt P08172, whole entry: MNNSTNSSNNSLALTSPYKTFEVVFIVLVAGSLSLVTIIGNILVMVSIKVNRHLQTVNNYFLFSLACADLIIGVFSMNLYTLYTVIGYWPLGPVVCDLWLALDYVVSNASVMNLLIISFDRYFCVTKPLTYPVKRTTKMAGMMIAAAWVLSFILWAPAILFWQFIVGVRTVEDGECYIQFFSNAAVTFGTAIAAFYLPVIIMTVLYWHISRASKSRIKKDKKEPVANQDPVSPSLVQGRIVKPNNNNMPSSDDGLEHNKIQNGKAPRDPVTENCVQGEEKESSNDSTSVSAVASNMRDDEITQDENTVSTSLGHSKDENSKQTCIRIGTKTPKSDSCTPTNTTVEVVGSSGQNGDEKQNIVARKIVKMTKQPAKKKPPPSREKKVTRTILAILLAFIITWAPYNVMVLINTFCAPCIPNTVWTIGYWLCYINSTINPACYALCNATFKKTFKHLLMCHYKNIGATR

In another assay the target is M2AChR (Homo sapiens, UniProt P08172). Nature of the assay: Competitive radioligand binding. The settings on record: negative log-transformed.
The target of assay [2] is T2, human M2 muscarinic receptor (Homo sapiens, UniProt P08172).
T2 construct: purchased PerkinElmer Life and Analytical Sciences, Boston, MA
As to the kind of experiment: GTP-γ-[35S] binding, antibody capture SPA (agonist and antagonist mode). It is filed as biochemical. The procedure:
The antibody capture scintillation proximity technique previously described by DeLapp et al was used in a 96-well plate to determine GTP-γ-[35S] binding. One hundred μl (20–40 fmol/well) of membrane preparation from CHO cells that stably express the human M1-M5 muscarinic receptors (PerkinElmer Life and Analytical Sciences, Boston, MA) were incubated with varying concentration of test compound (final concentrations from 50pM to 1μM) for 30 min. One μM final concentration of GDP was added to M2 and M4 receptor membranes before incubation. […] (500 pM final concentration; Perkin Elmer Life and Analytical Sciences) was added to each well followed by 30 min of incubation. Then the labelled membranes were solubilized with 0.27% Nonidet P40 for 30 min where after they were incubated with 20 μl (final dilution of 1:400) of the appropriate rabbit polyclonal Gα antibody (Covance, Princeton, NJ) for 60 min. […] By use of a Wallac MicroBeta TriLux scintillation counter (PerkinElmer), the plates were centrifuged for 10 min at 700 × g and counted for 1 min per well. […] The data were analyzed by use of nonlinear regression for a sigmoidal concentration response curve (GraphPad Prism v. 4.0). […] The mean relative EC50, IC50, and %Emax, and pKi values were calculated as a mean of at least three independent experiments±SEM. […]

Here are results for one compound from PMC4399838, “Antipsychotic-Like Effect of the Muscarinic Acetylcholine Receptor Agonist BuTAC in Non-Human Primates” (PLoS ONE, 2015).

The term Emax denotes the maximal effect, on the per cent scale that the assay sets. The % Inhibition is the percentage by which the read-out fell short of the control. The low end stands for little suppression, the high end for strong suppression. Usually Ki stands for the equilibrium dissociation constant of an inhibitor or competing ligand from its target.

As to `CCCCCCOc1nsnc1C1=CCCN(C)C1` [Xanomeline, xanomeline], in assay [1], the Emax was 68.3 ± 5.31%. Further, in assay [1] (antagonist mode, maximal inhibition of EC90 agonist response), the “% Inhibition” value was found to be 15.2± 0.47%. The compound further had a Ki at M2AChR of 295 nM. In assay [2] (agonist mode, mean ± SEM of negative log-transformed values, read-out: Rel pEC50 (converted)), the EC50 was 11.5 nM. In addition, the IC50 in assay [2] (antagonist mode against EC90 of agonist, negative log-transformed, read-out: Rel pIC50 (converted)) is 1.66 nM.
